The values that follow come from patent US11400102B2, “Treatment for bacterial infections with salicylic acid analogs” (priority 2019, dated 2022).

One data set deals with bacterial growth. To be noted: 0.05 μM to 1000 μM.
Another data set relates to strain growth. The following applies: 50 μM, FIGS. 34-36.

Molecules are shown by their SMILES.

Regarding `Cc1ccc(O)c(C(=O)O)c1` [5-methylsalicylic acid], the “bacterial growth by optical density” value in the data set on bacterial growth was “None of the doses of 5-methyl salicylic acid affected bacterial growth”. The “growth of the bacterial strain” value in the data set with strain growth is “does not inhibit”.
